The chains behind the UniProt entries cited, without tags or fusion partners.
UniProt P0DMS8, whole entry: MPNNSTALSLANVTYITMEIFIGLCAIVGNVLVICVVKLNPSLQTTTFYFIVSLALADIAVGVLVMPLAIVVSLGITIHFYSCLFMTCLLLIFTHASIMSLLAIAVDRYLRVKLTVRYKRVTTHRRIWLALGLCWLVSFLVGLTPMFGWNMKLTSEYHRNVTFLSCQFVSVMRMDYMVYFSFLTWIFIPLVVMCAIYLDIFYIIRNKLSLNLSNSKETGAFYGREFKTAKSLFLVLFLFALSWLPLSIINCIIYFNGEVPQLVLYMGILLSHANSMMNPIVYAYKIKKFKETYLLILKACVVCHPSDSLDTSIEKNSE

According to US20040067932A1 (priority 2002, published 2004):

Tests used:
hA3 adenosine receptor = hA3 adenosine receptor (Homo sapiens, UniProt P0DMS8); assay: Binding affinity at hA3 adenosine receptor; conditions: for rA1/hA3 / rA2A/hA3: selectivity ratio of Ki
[1] = test system: human melanoma A375 cell line; assay: MTT growth inhibitory assay, A375; format: cell-based; conditions: A3 antagonist 10 μg/ml, paclitaxel 0.0002-0.1 μg/ml
A375 cells = assay: Flow cytometry (PI) G2/M accumulation and sub-G1 apoptosis, A375; format: cell-based, human; conditions: MRE 3008F20 10 μM
Experimental: A375 and NCTC2544 adherent cells were trypsinized, mixed with floating cells, washed with PBS and permeabilised in 70% (vol/vol) ethanol/PBS solution at 4° C. for at least 24 hours. Jurkat, HeL023 and PBMC cells were centrifuged for 10 minutes at 1000×g. The cell pellet was then resuspended and permeabilised in 70% (vol/vol) ethanol/PBS solution at 4° C. for at least 24 hours. The cells were washed with PBS and the DNA was stained with a PBS solution, containing 20 μg/ml of propidium iodide and 100 μg/ml of RNAse, at room temperature for 30 minutes. Cells were analysed by FACScan (Becton-Dickinson) and the content of DNA was evaluated by the Cell-LISYS program (Becton-Dickinson). Cell distribution among cell cycle phases and apoptotic cells was evaluated as previously described (Secchiero et al., 2001). Briefly, the cell cycle distribution is shown as the percentage of cells containing 2n (G1 phase), 4n (G2 and M phases), 4n>x>2n. DNA amount (S phase) judged by propidium iodide staining. The apoptotic population is the percentage of cells with DNA content lower than 2n.
Cell proliferation and apoptosis are quantified by flow cytometer analysis after propidium-iodide (PI) DNA staining.

[2] = biological target: human A3 adenosine receptor (Homo sapiens, UniProt P0DMS8); assay: biochemical
[3] = test system: human pancreatic cancer Panc-1; assay: MTT growth inhibitory assay, Panc-1; format: cell-based; conditions: A3 antagonist 0.5 μg/ml

Row | SMILES | rA1/hA3 (hA3 adenosine receptor) | rA2A/hA3 (hA3 adenosine receptor) | Enhancement Factor for paclitaxel [1] | fold reduction of paclitaxel EC50 (G2/M) (A375 cells) | fold reduction of paclitaxel ECMAX (A375 cells) | fold reduction of vindesine EC50 (G2/M) (A375 cells) | fold reduction of vindesine ECMAX (A375 cells) | Ki [2] | Ki (hA3 adenosine receptor) | Ki (hA3 adenosine receptor; read-out: hA3 (Ki)) | Enhancement Factor for paclitaxel [3]
1 | CCCn1cc2c(nc(NC(=O)Nc3ccc(OC)cc3)n3nc(-c4ccco4)nc23)n1 [MRE3008F20] | >34,482 | 6,872 | 8.5 | 1.9 fold | 2.0 fold | 4.0 fold | 2.1 fold | 3.1 ± 0.3 nM | – | – | –
2 | CCN(CC)c1ccc(NC(=O)Nc2nc3nn(C)cc3c3nc(-c4ccco4)nn23)cc1 [IL-10, N-1-(4-diethylamino-phenyl)-N′-5-[8-methyl-2-(2-furyl)-pyrazolo[4 ,3-e]1,2,4-triazolo[1,5-c]pyrimidine]-urea] | 21.5 | 19.4 | – | – | – | – | – | 30 ± 2.5 nM | 27 nM | – | –
3 | CN(C)c1ccc(NC(=O)Nc2nc3nn(C)cc3c3nc(-c4ccco4)nn23)cc1 [IL-11, N-1-(4-dimethylamino-phenyl)-N′-5-[8-methyl-2-(2-furyl)-pyrazolo[4,3-e]1,2,4-triazolo[1,5-c]pyrimidine]-urea] | >6700 | >6700 | – | – | – | – | – | – | – | 15 nM | 1.8

Like-named read-outs stand apart in the source and are kept apart here.
